# Tests used:
# TG or DRG neurons = experiment: Calcium imaging of cultured somatosensory neurons (Fura-2); assay type: cell-based, rat; details: application of synthetic Hm1a
# [1] = tested on: SCN1A (R1407X) Dravet syndrome mice; experiment: ECoG interictal spiking after ICV infusion; assay type: in vivo, mouse; details: after ICV Hm1a (5 μL of 0.5 mM); before delivery 28±6; n=10; p=0.0059
# Text: Heterozygous SCN1A (R1407X) Dravet syndrome mice and wild-type littermates underwent ECoG and intracerebroventricular (ICV) guide cannula implantation surgery at post-natal day 18. ECoG surgery was as previously described in Reid, et al. (2011) Epilepsia, 52 (1): 115-120. In addition, a guide cannula was implanted during the surgery positioned in the right ventricle using a Kopf® stereotaxic frame with the following coordinates from bregma: caudal −0.4 mm and lateral 1.0 mm; 2.0 mm from the skull. At least 24 hours recovery was allowed following surgery before commencing ECoG recording and simultaneous infusion of either peptide or vehicle alone delivered via ICV. A total volume of 5 μL of peptide (0.5 mM) was infused, suspended in vehicle containing 0.1% BSA and sterile saline; control animals received 5 μL of vehicle only. Synthetic Hm1a (Example 1) or vehicle only was infused (0.1 μL/minute) via an internal cannula connected to a Hamilton syringe and driver (Harvard PHD 2000). […]
# ECoG and video recordings were made for unrestrained animals at least one hour prior to ICV peptide delivery and then an additional 2-3 hours after infusion using Powerlab 16/30 (AD Instruments Pty. Ltd., Sydney, NSW, Australia); signals were band-pass filtered at 0.1 to 200 Hz and sampled at 1 kHz. […] Data was analysed using Sirenia Seizure Pro (1.6.6; Pinnacle Technology). […]
# [2] = tested on: wild-type CA1 GABAergic inhibitory interneurons; experiment: Brain-slice whole-cell recordings, wild-type inhibitory interneurons; assay type: cell-based, mouse; details: 10 nM
# Method: Mice (post-natal day 14-16) were anaesthetized using isoflurane and sacrificed by decapitation. Brain slices (300-μm thick) were cut using a vibratome in the sagittal plane. Slices were kept at room temperature until recording. The slices were transferred to a recording chamber constantly perfused at 34° C. with artificial cerebrospinal fluid (CSF) solution consisting of: 125 mM NaCl, 2.5 mM KCl, 25 mM NaHCO3, 1.25 mM NaH2PO4, 1 mM MgCl2, 2 mM CaCl2) and 10 mM glucose, aerated with 95% O2 and 5% CO2 (final pH of 7.4). Whole-cell patch-clamp recordings were made using a MultiClamp 700A amplifier and pClamp acquisition software (Molecular Devices) from neurons visually identified using infrared differential interference contrast imaging (BX51, Olympus). Electrodes were pulled using a Sutter P-2000 puller (Sutter Instruments) from borosilicate micropipettes (World Precision Instruments) with an initial resistance of ˜2-3 megaohms and filled with intracellular solution consisting of 125 mM KGlu, 4 mM KCl, 2 mM MgCl2, 10 mM HEPES, 10 mM EGTA, 4 mM ATP-Mg, 0.3 mM GTP-Na, and 8 mM Biocytin Hydrochloride adjusted to a final pH of 7.3 with KOH. D-Mannitol was used to adjust osmolarity to 300 mOsm. Bridge balance was applied to all recordings. Voltage recordings were filtered at 30 kHz and sampled at 100 kHz. A holding current was injected into neurons if required, setting their holding potential to approximately −75 mV. A current injection/action potential (AP) frequency relationship was established by injecting an 800 ms square pulse of progressively depolarising currents. An automated AP detection algorithm in Axograph was used to detect AP with visual confirmation. The integrated number of APs between injection current bins of the i-o relationships was calculated (Axograph X) in order to allow comparison between control and Hm1a. AP threshold voltage was defined as the voltage at which velocity reached 10 mV/ms. For the AP waveform analysis, amplitude was measured from threshold to peak, rise-time was determined as the time between 10% to 90% of the AP amplitude and AP width was measured at 50% of the peak amplitude. AP measured at ‘collapse’ were selected for each individual cell at the first current injection at which AP collapse was robust. APs at the same current injection were analyzed in the presence of Hm1a. Membrane input resistance was measured in current clamp mode by measuring the last 200 ms of the voltage trace generated by a current injection of −10 pA.
# The impact of the peptide on non-collapsing wild-type CA1 GABAergic inhibitory interneurons was also tested (FIG. 6). […] Hm1a had no impact on resting potential (Table 8) or input resistance (270±40 versus 330±40 MΩ, p=0.76, n=6) of the wild-type GABAergic inhibitory neurons. Further, no changes in any of the morphology measurements of APs analysed at rheobase were seen (Table 8).
smiles,measurement,setting,value
CC(C)C[C@@H]1NC(=O)[C@H](Cc2ccc(O)cc2)NC(=O)[C@H](CCCNC(=N)N)NC(=O)[C@@H](NC(=O)[C@@H](N)CCC(=O)O)CSSC[C@@H]2NC(=O)[C@@H]3CSSC[C@@H](C(=O)N[C@@H](C)C(=O)N[C@@H](Cc4c[nH]c5ccccc45)C(=O)N[C@@H](CC(=O)O)C(=O)NCC(=O)N[C@H](C(=O)N[C@@H](Cc4ccccc4)C(=O)N[C@@H](CO)C(=O)O)[C@@H](C)O)NC(=O)[C@H](Cc4ccc(O)cc4)NC(=O)[C@H](CCCCN)NC(=O)[C@H](Cc4c[nH]c5ccccc45)NC(=O)[C@H](CC(=O)O)NC(=O)[C@H](CO)NC(=O)[C@H](CCCNC(=N)N)NC(=O)[C@H](CSSC[C@H](NC(=O)CNC(=O)CNC(=O)[C@H](Cc4ccccc4)NC1=O)C(=O)N[C@@H](CO)C(=O)N[C@@H](CO)C(=O)N[C@@H]([C@@H](C)O)C(=O)N[C@@H](CO)C(=O)N[C@@H](CC(=O)O)C(=O)N3)NC(=O)[C@H](CO)NC(=O)[C@H](CC(C)C)NC(=O)[C@H](Cc1c[nH]cn1)NC(=O)[C@H](CCCCN)NC2=O [Hm1a],calcium responses in TG neurons,TG or DRG neurons,triggered calcium responses
same,number of high amplitude interictal spikes during 30 min epoch,[1],12±2
same,rheobase,[2],no shift
same,input resistance,"[2]; 270±40 versus 330±40, p=0.76, no impact",330±40 MΩ
same,current-AP relationship,"[2]; at intermediate current injections, normalized at higher currents",small right shift
same,Action potential Rise at rheobase,[2]; control 0.49 ± 0.6,0.43 ± 0.4 ms
same,Action potential Width at rheobase,[2]; control 1.4 ± 0.1,1.3 ± 0.1 ms
same,RMP,[2]; control 79 ± 2,79 ± 2 mV
same,Action potential Amp at rheobase,"[2]; control 79 ± 9, n = 6",79 ± 8 mV
same,Action potential Threshold at rheobase,[2]; control −44 ± 3,−38 ± 2 mV
